Test system: YAC-1 target cells
Test: NK cytotoxicity assay, 4-h 51Cr-release against YAC-1 target cells
Type: cell-based, mouse
Conditions: B cell-depleted C57BL/6 spleen cells, 18 h; IL-2 100 U/mL, ODN 1585 5 μg/mL, SC-58236 0.25 μg/mL, PGE2 0.1 μg/mL; 1 LU = 30% 51Cr release
Protocol: Cytotoxicity assay. Spleen cells from C57BL/6 mice were depleted of B cells using paramagnetic beads coated with goat anti-mouse Ig as previously described. Ballas Z K et al. (1990) J Immunol 145:1039-45; Ballas Z K et al. (1993) J Immunol 150:17-30. […] […] Cultures were harvested at 18 h and the cells were used as effectors in a standard 4-h ^51Cr-release assay against YAC-1 target cells labeled with Na^51CrO4 (Amersham Life Science, Arlington Heights, Ill.) as described previously. Ballas Z K et al. (1990) J Immunol 145:1039-45; Ballas Z K et al. (1993) J Immunol 150:17-30; Ballas Z K et al. (1990) J Allergy Clin Immunol 85:453-39. One lytic unit (LU) was defined as the number of the cells needed to exert 30% specific lysis.
COX inhibitors augment the cytotoxic activity of NK cells. It has previously been reported that certain CpG DNA sequences can elicit strong lytic activity in NK cells (Ballas Z K et al. (1996) J Immunol 157:1840-45), whereas exogenous PGE2 is known to inhibit the activity of NK cell killing (Kanar M C et al. (1988) J Clin Immunol 8:69-79; Young M R et al. (1986) J Natl Cancer Inst 77:425-29). B cell-depleted murine spleen cells were stimulated with the stimulatory ODN 1585 in the presence or absence of a COX inhibitor. […] Similar data were obtained using the non-selective COX-inhibitor, piroxicam.

“IL-2: interleukin-2, positive stimulus at 100 U/mL” was tested, and the “NK activity, Mouse Spleen Cells (LU/10^6)” value was 13.9 LU/10^6.

— patent US20050250726A1, “Immunostimulatory nucleic acid for treatment of non-allergic inflammatory diseases” (University of Iowa Research Foundation, priority 2001, published 2005)
